How the values were obtained:
in vivo [1] = settings: C57BL/6, mouse, po, 10 mg/kg
in vivo [2] = settings: C57BL/6, mouse, po, 30 mg/kg
in vivo [3] = settings: C57BL/6, mouse, po, 100 mg/kg
in vivo [4] = settings: C57BL/6, mouse, po, 10 mg/kg; remark: listed apart in the source
in vivo [5] = settings: C57BL/6, mouse, po, 30 mg/kg; remark: listed apart in the source
in vivo [6] = settings: C57BL/6, mouse, po, 100 mg/kg; remark: listed apart in the source
in vivo [7] = settings: C57BL/6, mouse, po, 10 mg/kg; remark: listed apart in the source
in vivo [8] = settings: C57BL/6, mouse, po, 30 mg/kg; remark: listed apart in the source
in vivo [9] = settings: C57BL/6, mouse, po, 100 mg/kg; remark: listed apart in the source
in vivo [10] = settings: C57BL/6, mouse, po, 10 mg/kg; remark: listed apart in the source
in vivo [11] = settings: C57BL/6, mouse, po, 30 mg/kg; remark: listed apart in the source
in vivo [12] = settings: C57BL/6, mouse, po, 100 mg/kg; remark: listed apart in the source
in vivo [13] = settings: C57BL/6, mouse, po, 10 mg/kg; remark: listed apart in the source
in vivo [14] = settings: C57BL/6, mouse, po, 30 mg/kg; remark: listed apart in the source
in vivo [15] = settings: C57BL/6, mouse, po, 100 mg/kg; remark: listed apart in the source

Tmax (in vivo [1]): 1.33 h
Tmax (in vivo [2]): 0.83 h
Tmax (in vivo [3]): 0.5 h
Cmax (in vivo [4]): 383 ng/mL
Cmax (in vivo [5]): 1400 ng/mL
Cmax (in vivo [6]): 11000 ng/mL
half-life (in vivo [7]): 1.05 h
half-life (in vivo [8]): 1.27 h
half-life (in vivo [9]): 1.98 h
AUC(0-t) (in vivo [10]): 934 ng·h/mL
AUC(0-t) (in vivo [11]): 2690 ng·h/mL
AUC(0-t) (in vivo [12]): 18700 ng·h/mL
AUC(0-inf) (in vivo [13]): 945 ng·h/mL
AUC(0-inf) (in vivo [14]): 2750 ng·h/mL
AUC(0-inf) (in vivo [15]): 19200 ng·h/mL
Compound: C[C@@H]1CN(S(C)(=O)=O)CCN1Cc1cc2c(=O)n(C)cc(-c3ccn(C)n3)c2o1

From ChEMBL document CHEMBL5576078, “Discovery of a potent, orally available furopyridine derivative as a novel selective bromodomain and extra-terminal domain (BET)-first bromodomain (BD1) inhibitor” (Bioorg Med Chem Lett, 2024)
